What was measured:
ferroportin = target: T1, ferroportin (Homo sapiens, UniProt Q9NP59); experiment: T47D cell-based ferroportin internalization assay in presence of 0.5% mouse serum albumin (MSA); details: Table 6B, T47D cells
T1 sequence (Q9NP59 1-571): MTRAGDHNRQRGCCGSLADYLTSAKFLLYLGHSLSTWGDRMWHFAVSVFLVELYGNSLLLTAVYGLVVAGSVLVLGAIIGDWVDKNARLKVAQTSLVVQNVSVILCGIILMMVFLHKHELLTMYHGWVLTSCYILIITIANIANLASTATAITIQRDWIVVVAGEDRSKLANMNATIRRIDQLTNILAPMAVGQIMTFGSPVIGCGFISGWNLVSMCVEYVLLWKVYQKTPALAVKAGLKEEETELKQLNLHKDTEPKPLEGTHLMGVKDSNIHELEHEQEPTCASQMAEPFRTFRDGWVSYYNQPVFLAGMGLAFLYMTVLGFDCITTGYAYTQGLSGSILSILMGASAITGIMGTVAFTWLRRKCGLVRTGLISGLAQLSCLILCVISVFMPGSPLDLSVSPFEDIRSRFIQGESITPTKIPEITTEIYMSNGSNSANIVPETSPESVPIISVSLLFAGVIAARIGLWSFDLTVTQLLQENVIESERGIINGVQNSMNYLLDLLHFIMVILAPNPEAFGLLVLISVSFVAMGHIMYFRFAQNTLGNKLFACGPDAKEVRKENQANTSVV
Method: The potency of the peptides in causing ferroportin internalization was evaluated in a T47D cell-based assay. […] In this internalization assay, the potency of the test peptides was evaluated in presence of serum albumin which is the main protein component in the blood. T47D cells were maintained in RPMI media (containing required amount of fetal bovine serum) and regularly sub-cultured. In preparation for the assay, the cells were seeded in 96-well plates at a density of 80-100 k cells per well in 100 ul volume and allowed to rest overnight. On the next day, test peptides were first prepared in dilution series (10-point series, starting concentration of ˜5 μM, typically 3-4×fold dilution steps), all with 0.5% mouse serum albumin (MSA purified from mouse serum; Sigma, A3139). The test peptide dilution series were allowed to incubate at room temperature for 30 min. Then the media was aspirated from the 96-well cell plate and test peptide dilution series were added. After 1 hr incubation, the media with test peptides was aspirated out and AF647-conjugated detection peptide was added at fixed concentration of 200 nM. The AF647-conjugated detection peptide was previously verified to bind to ferroportin and cause its internalization. The cells were washed again after a 2 hr incubation in preparation for flow cytometry analysis. The Median Fluorescence Intensity (MFI) of the AF647-positive population was measured (after removing dead cells and non-singlets from the analysis). The MFI values were used to generate a dose-response curve and obtain IC50 potencies for the test peptides. The IC50 potencies were calculated by using 4-parameter non-linear fitting function in Graphpad Prism (Table 6A).

[1] = target: T2, human ferroportin (SLC40A1) (Homo sapiens, UniProt Q9NP59); experiment: FPN activity assay: internalization/degradation of ferroportin-GFP in stably transfected HEK293 cells (decrease in GFP fluorescence); assay type: cell-based
T2 sequence (Q9NP59 1-571): T1 sequence (Q9NP59 1-571)
Method: Peptide analogues were tested in vitro for induction of internalization of the human ferroportin protein. Following internalization, the ferroporin protein is degraded. The assay used (FPN activity assay) measures a decrease in fluorescence of the receptor. The cDNA encoding the human ferroportin (SLC40A1) was cloned from a cDNA clone from Origene (NM_014585). The DNA encoding the ferroportin was amplified by PCR using primers also encoding terminal restriction sites for subcloning, but without the termination codon. The ferroportin receptor was subcloned into a mammalian GFP expression vector containing a neomycin (G418) resistance marker in such that the reading frame of the ferroportin was fused in frame with the GFP protein. The fidelity of the DNA encoding the protein was confirmed by DNA sequencing. HEK293 cells were used for transfection of the ferroportin-GFP receptor expression plasmid. The cells were grown according to standard protocol in growth medium and transfected with the plasmids using Lipofectamine (manufacturer's protocol, Invitrogen). The cells stably expressing ferroportin-GFP were selected using G418 in the growth medium (in that only cells that have taken up and incorporated the cDNA expression plasmid survive) and sorted several times on a Cytomation MoFloTM cell sorter to obtain the GFP-positive cells (488 nm/530 nm). The cells were propagated and frozen in aliquots. […] Compound was added to desired final concentration for at least 18 hours in the incubator. Following incubation, the remaining GFP-fluorescence was determined either by whole cell GFP fluorescence (Envision plate reader, 485/535 filter pair), or by Beckman Coulter QuantaTM cytometer (express as Geometric mean of fluorescence intensity at 485 nm/525 nm). Compound was added to desired final concentration for at least 18 hours but no more than 24 hours in the incubator. […] The “RI” in RI-Mini-Hepcidin refers to Retro Inverse. A retro inverse peptide is a peptide with a reversed sequence in all D amino acids. An example is that […] becomes […]. The EC50 of these reference compounds for ferroportin internalization/degradation was determined according to the FPN activity assay described above. These peptides served as control standards.

| Structure (SMILES) | IC50 (ferroportin) [nM] | IC50 ([1]; Table 6B, Formula (X) peptides) [nM] | IC50 ([1]; Table 6C, Formula (XI) peptides) [nM] |
| --- | --- | --- | --- |
| CCCCCCCCCCCCCCCC(=O)N[C@@H](CCC(=O)NCCOCCOCC(=O)NCCOCCOCC(=O)NCCCC[C@@H]1NC(=O)[C@@H]2CCCN2C(=O)[C@H](C(c2ccccc2)c2ccccc2)NC(=O)[C@H](Cc2c[nH]cn2)NC(=O)[C@H]([C@@H](C)O)NC(=O)[C@@H](NC(=O)CC(C)C)CCC/C=C/CCC[C@@H](C(=O)N[C@H](CC(=O)N[C@H](CCCNC(=N)N)C(N)=O)Cc2ccccc2)NC(=O)[C@H](CC(C)(C)C)NC1=O)C(=O)O [compound 107] | 1 to 10 |  |  |
| CC(C)CC(=O)N[C@H]1CCC/C=C/CCC[C@@H](C(=O)N[C@H](CC(=O)N[C@@H](CCCCNC(=O)COCCOCCNC(=O)COCCOCCNC(=O)C[N+](C)(C)CCNC(=O)CCCCCCCCCCCCCCCCC(=O)O)C(=O)N[C@H](CCCNC(=N)N)C(N)=O)Cc2ccccc2)NC(=O)[C@H](CC(C)(C)C)NC(=O)[C@H](C)NC(=O)[C@@H]2CCCN2C(=O)[C@H](C(c2ccccc2)c2ccccc2)NC(=O)[C@H](Cc2c[nH]cn2)NC(=O)[C@H]([C@@H](C)O)NC1=O [compound 101] | 10 to 100 | 1 to 10 |  |
| CC[C@H](C)[C@@H]1NC(=O)[C@H](CCCCNC(=O)COCCOCCNC(=O)COCCOCCNC(=O)C[N+](C)(C)CCNC(=O)CCCCCCCCCCCCCCCCC(=O)O)NC(=O)[C@@H]2CCCN2C(=O)[C@H](C(c2ccccc2)c2ccccc2)NC(=O)[C@H](Cc2c[nH]cn2)NC(=O)[C@H]([C@@H](C)O)NC(=O)[C@@H](NC(=O)CC(C)C)CCC/C=C/CCC[C@@H](C(=O)N[C@H](CC(=O)N[C@H](CCCNC(=N)N)C(N)=O)Cc2ccccc2)NC1=O [compound 115] |  | 10 to 100 |  |
| CC(C)CC(=O)N[C@H]1CCC/C=C/CCC[C@@H](C(=O)N[C@H](CC(=O)N[C@H](CCCNC(=N)N)C(N)=O)Cc2ccccc2)NC(=O)[C@H](CC(C)(C)C)NC(=O)[C@H](CCCCNC(=O)COCCOCCNC(=O)COCCOCCNC(=O)CCCCCNC(=O)CCCCCCCCCCCCCCCCC(=O)O)NC(=O)[C@@H]2CCCN2C(=O)[C@H](C(c2ccccc2)c2ccccc2)NC(=O)[C@H](Cc2c[nH]cn2)NC(=O)[C@H]([C@@H](C)O)NC1=O [compound 109] | 10 to 100 |  |  |
| CCCCCCCCCCCCCCCC(=O)NCCCCCC(=O)NCCCC[C@@H]1NC(=O)[C@@H]2CCCN2C(=O)[C@H](C(c2ccccc2)c2ccccc2)NC(=O)[C@H](Cc2c[nH]cn2)NC(=O)[C@H]([C@@H](C)O)NC(=O)[C@@H](NC(=O)CC(C)C)CCC/C=C/CCC[C@@H](C(=O)N[C@H](CC(=O)N[C@H](CCCNC(=N)N)C(N)=O)Cc2ccccc2)NC(=O)[C@H](CCCNC(=N)N)NC1=O [compound 117] |  | 10 to 100 |  |
| CCCCCCCCCCCCCCCC(=O)NCCCCCC(=O)NCCCC[C@H](NC(=O)C[C@H](Cc1ccccc1)NC(=O)[C@@H]1CC/C=C/CC[C@H](NC(=O)CC(C)C)C(=O)N[C@@H]([C@@H](C)O)C(=O)N[C@@H](Cc2c[nH]cn2)C(=O)N[C@@H](C(c2ccccc2)c2ccccc2)C(=O)N2CCC[C@H]2C(=O)NCC[N+](C)(C)CC(=O)N1)C(N)=O [compound 127] |  |  | 100 to 500 |

The next lines start with the values.

| IC50 (ferroportin) [nM] | IC50 ([1]; Table 6B, Formula (X) peptides) [nM] | IC50 ([1]; Table 6C, Formula (XI) peptides) [nM] | Structure (SMILES) |
| --- | --- | --- | --- |
| 10 to 100 |  |  | CC(C)CC(=O)N[C@H]1CCC/C=C/CCC[C@@H](C(=O)N[C@H](CC(=O)N[C@@H](CCCCNC(=O)COCCOCCNC(=O)COCCOCCNC(=O)C[N+](C)(C)CCNC(=O)CCCCCCCCCCCCCCCCC(=O)O)C(=O)N[C@H](CCCNC(=N)N)C(N)=O)Cc2ccccc2)NC(=O)[C@H](CC(C)(C)C)NC(=O)CN(C)C(=O)[C@@H]2CCCN2C(=O)[C@H](C(c2ccccc2)c2ccccc2)NC(=O)[C@H](Cc2c[nH]cn2)NC(=O)[C@H]([C@@H](C)O)NC1=O [compound 100] |
| 10 to 100 |  |  | CC(C)CC(=O)N[C@H]1CCC/C=C/CCC[C@@H](C(=O)N[C@H](CC(=O)N[C@H](CCCNC(=N)N)C(N)=O)Cc2ccccc2)NC(=O)[C@H](CC(C)(C)C)NC(=O)[C@H](CCCCNC(=O)COCCOCCNC(=O)COCCOCCNC(=O)CC[C@H](NC(=O)CCCCCCCCCCCCCCCCC(=O)O)C(=O)O)NC(=O)[C@@H]2CCCN2C(=O)[C@H](C(c2ccccc2)c2ccccc2)NC(=O)[C@H](Cc2c[nH]cn2)NC(=O)[C@H]([C@@H](C)O)NC1=O [compound 108] |
| 10 to 100 |  |  | CC[C@H](C)[C@@H]1NC(=O)[C@H](C)NC(=O)[C@@H]2CCCN2C(=O)[C@H](C(c2ccccc2)c2ccccc2)NC(=O)[C@H](Cc2c[nH]cn2)NC(=O)[C@H]([C@@H](C)O)NC(=O)[C@@H](NC(=O)CC(C)C)CCC/C=C/CCC[C@@H](C(=O)N[C@H](CC(=O)N[C@@H](CCCCNC(=O)COCCOCCNC(=O)COCCOCCNC(=O)CCCCCNC(=O)CCCCCCCCCCCCCCCCC(=O)O)C(=O)N[C@H](CCCNC(=N)N)C(N)=O)Cc2ccccc2)NC1=O [compound 113] |
|  | 10 to 100 |  | CCCCCCCCCCCCCCCC(=O)NCCCCCC(=O)NCCOCCOCC(=O)NCCOCCOCC(=O)NCCCC[C@@H]1NC(=O)[C@@H]2CCCN2C(=O)[C@H](C(c2ccccc2)c2ccccc2)NC(=O)[C@H](Cc2c[nH]cn2)NC(=O)[C@H]([C@@H](C)O)NC(=O)[C@@H](NC(=O)CC(C)C)CCC/C=C/CCC[C@@H](C(=O)N[C@H](CC(=O)N[C@H](CCCNC(=N)N)C(N)=O)Cc2ccccc2)NC(=O)[C@H]([C@@H](C)CC)NC1=O [compound 116] |
|  | 1 to 10 |  | CC[C@H](C)[C@@H]1NC(=O)[C@H](CCCCNC(=O)COCCOCCNC(=O)COCCOCCNC(=O)C[N+](C)(C)CCNC(=O)CCCCCCCCCCCCCCCCC(=O)O)NC(=O)[C@@H]2CCCN2C(=O)[C@H](C(c2ccccc2)c2ccccc2)NC(=O)[C@H](Cc2c[nH]cn2)NC(=O)[C@H]([C@@H](C)O)NC(=O)[C@@H](NC(=O)CC(C)C)CCC/C=C/CCC[C@@H](C(=O)N[C@H](CC(=O)N[C@H](CCCCNC(=O)C[N+](C)(C)C)C(N)=O)Cc2ccccc2)NC1=O [compound 119] |
| 10 to 100 |  |  | CC[C@H](C)[C@@H]1NC(=O)[C@H](C)NC(=O)[C@@H]2CCCN2C(=O)[C@H](C(c2ccccc2)c2ccccc2)NC(=O)[C@H](Cc2c[nH]cn2)NC(=O)[C@H]([C@@H](C)O)NC(=O)[C@@H](NC(=O)CC(C)C)CCC/C=C/CCC[C@@H](C(=O)N[C@H](CC(=O)N[C@@H](CCCCNC(=O)COCCOCCNC(=O)COCCOCCNC(=O)CC[C@H](NC(=O)CCCCCCCCCCCCCCCCC(=O)O)C(=O)O)C(=O)N[C@H](CCCNC(=N)N)C(N)=O)Cc2ccccc2)NC1=O [compound 112] |
|  | 1 to 10 |  | CCCCCCCCCCCCCCCC(=O)NCCCCCC(=O)NCCCC[C@@H]1NC(=O)[C@@H]2CCCN2C(=O)[C@H](C(c2ccccc2)c2ccccc2)NC(=O)[C@H](Cc2c[nH]cn2)NC(=O)[C@H]([C@@H](C)O)NC(=O)[C@@H](NC(=O)CC(C)C)CCC/C=C/CCC[C@@H](C(=O)N[C@H](CC(=O)N[C@H](CCCNC(=N)N)C(N)=O)Cc2ccccc2)NC(=O)[C@H]([C@@H](C)CC)NC1=O [compound 118] |
| 1 to 10 |  |  | CCCCCCCCCCCCCCCC(=O)NCCCCCC(=O)NCCCC[C@@H]1NC(=O)[C@@H]2CCCN2C(=O)[C@H](C(c2ccccc2)c2ccccc2)NC(=O)[C@H](Cc2c[nH]cn2)NC(=O)[C@H]([C@@H](C)O)NC(=O)[C@@H](NC(=O)CC(C)C)CCCC=CCCC[C@@H](C(=O)N[C@H](CC(=O)N[C@H](CCCNC(=N)N)C(N)=O)Cc2ccccc2)NC(=O)[C@H](CC(C)(C)C)NC1=O [compound 110] |

— US20240209053A1 (Protagonist Therapeutics, Inc., priority 2021, published 2024)
